From patent US12133841B2, “Heterocyclic compounds as kinase inhibitors, compositions comprising the heterocyclic compound, and methods of use thereof” (JS INNOMED HOLDINGS LTD., priority 2018, dated 2024) come the findings set out here.

Chains of the proteins cited; added tags and fusions are not shown.
UniProt P28482, whole entry: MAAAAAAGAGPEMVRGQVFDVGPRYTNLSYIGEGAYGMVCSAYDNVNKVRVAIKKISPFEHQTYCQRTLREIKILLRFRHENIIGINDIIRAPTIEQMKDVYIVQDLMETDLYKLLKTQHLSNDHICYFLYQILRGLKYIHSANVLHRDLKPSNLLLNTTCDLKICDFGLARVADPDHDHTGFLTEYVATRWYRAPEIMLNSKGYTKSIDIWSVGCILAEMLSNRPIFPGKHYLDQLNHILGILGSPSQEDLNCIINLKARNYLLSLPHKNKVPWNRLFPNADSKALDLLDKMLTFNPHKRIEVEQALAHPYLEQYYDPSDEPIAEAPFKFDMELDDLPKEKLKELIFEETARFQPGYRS

SMILES strings stand for the structures. pIC50: −log10 of the molar value.

The target of assay [1] is human ERK2 (Homo sapiens, UniProt P28482). As to the kind of experiment: LanthaScreen TR-FRET ERK2 enzymatic assay. Particulars: read-out: ERK2 Biochemical Activity (IC50 of ERK2 inhibition); 5 μM ATP, one hour reaction. On the procedure: Compounds were tested in a LanthaScreen™ time-resolved fluorescence energy transfer (TR-FRET) enzymatic assay from Invitrogen. The assay used human ERK2 (Mitogen Activated Kinase 1, Invitrogen, Cat. PV3311) recombinantly expressed as GST-tagged full-length protein purified from E. coli and activated in vitro with MAP2K1. The substrate was a recombinant truncated version (residues 19-96) of ATF2 fused with Green Fluorescent Protein (Invitrogen, Cat. PV4445). Test compounds were prepared and diluted in DMSO in 3-fold serial dilutions to 100× of the final testing concentrations. The compounds were then further diluted to 4× by the kinase reaction buffer (Invitrogen, Cat. PV3189). […] After 30 minutes of incubation at room temperature, the plate was read in Tecan Infinite F200 Pro with the following settings: Excitation 340 nm (30)/Emission1 495 nm (10)/Emission2 520 nm (25). The TR-FRET values were dimensionless numbers that were calculated as the ratio of the acceptor ([…]) signal to the donor (Terbium) signal. Percent of control was calculated as the percentage of compound-treated vs 1% DMSO vehicle-treated. The dose-response curves were generated and the IC50s were calculated by nonlinear sigmoid curve fitting using GraphPad Prism. […]
A general note: In TR-FRET formats the signal depends on donor and acceptor labels being close together.

For assay [2], the system named is Colo205 cell line. As to the kind of experiment: Colo205 cell proliferation assay (MTT assay, WST-8). The conditions noted are these: read-out: Colo 205 Cell Activity (IC50 of growth inhibition in Colo 205 cells); 72 hours incubation. The procedure: Compounds disclosed herein were tested for the inhibition of ERK2 by a Colo205 cell proliferation assay commonly known as MTT assay. In this assay, a complete media was prepared by adding 10% fetal bovine serum to RPMI-1640 medium (Life technology). Colon cancer cells (Colo205 cell line) were added to each of 88 wells of a 96 well plate at a seeding density of 5,000 cells/well/90 μL. The cells were allowed to attach to the plate by incubating at 37° C. for 24 hours. The compound was dissolved in DMSO (SIGMA). A solution of test compound was prepared in complete media by serial dilution to obtain the following concentrations: 500 μM, 150 μM, 50 μM, 15 μM, 5 μM, 1.5 μM, 0.5 μM, 0.15 μM and 0.05 μM. The test compound solution (10 μL) was added to each of 80 cell-containing wells. The final concentrations of the compound were following: 50 μM, 15 μM, 5 μM, 1.5 μM, 0.5 μM, 0.15 μM, 0.05 μM, 0.015 μM and 0.005 μM. The final concentration of DMSO is 0.5%. To the 8 remaining cell-containing wells, only complete media (containing 0.5% DMSO) was added to form a control group in order to measure maximal proliferation. To the remaining 8 empty wells, complete media was added to for a vehicle control group in order to measure background. […] The plates were further incubated at 37° C. for 2 hours, and then read for the absorbance using a microplate reader at 450 nm. […]

As usually defined, the pIC50 is −log10 of the IC50, conventionally taken in molar units. Consider `CC(c1ccnc(C(F)(F)F)c1)N1C(=O)c2cc(-c3ccnc(Nc4ccnn4C)n3)sc2C1(C)C` (racemic) [Example 9, 6,6-dimethyl-2-(2-(1-methyl-1H-pyrazol-5-ylamino)pyrimidin-4-yl)-5-(1-(2-(trifluoromethyl)pyridin-4-yl)ethyl)-5,6-dihydro-4H-thieno[2,3-c]pyrrol-4-one], for which the figures for the pIC50 in assay [1] and in assay [2] were greater than 8.00 and greater than 6.30, respectively.
